Yeast mating assay 2: variants of the scFv Ab-91

Target peptide (SARS-CoV-2 spike, HR2 region): PDVDLGDISGINAS

Ab-91 is the parent antibody, in scFv form: VL, then three GGGGS repeats, then VH. The light chain is unchanged in all variants.
VL: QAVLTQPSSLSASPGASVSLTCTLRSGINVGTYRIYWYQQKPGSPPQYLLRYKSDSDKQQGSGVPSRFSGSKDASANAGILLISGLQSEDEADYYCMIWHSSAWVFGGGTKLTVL
VH: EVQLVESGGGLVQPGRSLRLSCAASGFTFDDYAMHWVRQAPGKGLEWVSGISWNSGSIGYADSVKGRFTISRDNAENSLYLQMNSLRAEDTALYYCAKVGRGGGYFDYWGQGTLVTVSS

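The library (AAYL51) carries one to three amino acid substitutions per variant, with no insertions or deletions. Affinity was read by AlphaSeq, a pooled yeast mating assay with surface-displayed partners. Pairs that bind mate more often; barcode pairs of the diploids are counted by sequencing. Each replicate has its own calibration line, from reference interactions of the BCL2 family. Each pool was mated in three replicate cultures.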

The whole VH of each variant is written out. Values are log10 of the apparent Kd in nM; lower means stronger binding. "n.d." marks a missing value. The strain was present, yet no cells mated with the target were sequenced in that replicate, which points to weak or no binding. Empty control strains, which show no peptide, gave a signal in 21% of pairings with library AAYL51; the median was 4.54 and 95% of these signals were weaker than 3.26. No background was subtracted. For each scFv, signals with the empty controls are counted beside the result, with their mean in brackets. In this assay the parent's reference entry averaged 1.86; its copy inside this library read 0.88.

VH	replicates, log10 nM	empty controls
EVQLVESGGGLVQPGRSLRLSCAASGFTFDDVAMHWVRQAPGKGLEWVSGISWNSGSIGYADSAKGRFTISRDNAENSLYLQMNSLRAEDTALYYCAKVGRGGGYFDFWGQGTLVTVSS	n.d. n.d. n.d.	1/9 (3.21)
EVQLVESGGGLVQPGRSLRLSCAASGFTFDDYAMHWVRQAPGKGLEWVSGISWNSGSIGYADSVKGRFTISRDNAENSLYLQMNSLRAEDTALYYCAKVGRVGWYPDYWGQGTLVTVSS	5.95 5.50 n.d.	1/9 (5.62)
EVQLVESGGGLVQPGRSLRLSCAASGFTFDDYAMHWVRQAPGKGLEWVSGIPWNSGLIGYADSQKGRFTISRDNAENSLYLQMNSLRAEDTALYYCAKVGRGGGYFDYWGQGTLVTVSS	5.71 n.d. n.d.	0/9
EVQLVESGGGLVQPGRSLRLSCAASGFTFDDYAMHWVRQAPGKGLEWVSGISWNSGSIGYADSVKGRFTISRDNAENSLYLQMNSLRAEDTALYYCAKVGRGGGYFWYWGQGTLVTVSS	4.29 5.64 n.d.	0/9
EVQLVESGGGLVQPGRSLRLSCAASGFTFDDYAMHWVRQAPGKGLEWVSHISWISGSIGYADSHKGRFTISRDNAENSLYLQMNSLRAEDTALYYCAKVGRGGGYFDYWGQGTLVTVSS	3.15 n.d. n.d.	2/9 (4.01)
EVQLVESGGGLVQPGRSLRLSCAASGFTFPDYAMQWVRQAPGKGLEWVSGISWNSGSIGYNDSVKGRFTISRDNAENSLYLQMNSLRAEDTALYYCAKVGRGGGYFDYWGQGTLVTVSS	n.d. n.d. n.d.	0/9
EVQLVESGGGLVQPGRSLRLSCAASGFTFDDYAMHWVRQAPGKGLEWVSGISWNSGAIGLADSVKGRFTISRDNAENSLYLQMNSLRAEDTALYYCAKVGRGGGNFDYWGQGTLVTVSS	3.18 3.53 n.d.	1/9 (3.42)
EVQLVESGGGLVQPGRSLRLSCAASGFTSDDYAMHWVRQAPGKGLEWVSGISWNSGSIGYGDSVKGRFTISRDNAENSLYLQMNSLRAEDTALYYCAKVGRGGGYFDYWGQGTLVTVSS	n.d. n.d. n.d.	1/9 (2.93)
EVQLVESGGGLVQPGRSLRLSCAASGFTFDDYAMHWVRQAPGKGLEWVSGISWNSGQLGYADHVKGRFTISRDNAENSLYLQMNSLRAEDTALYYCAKVGRGGGYFDYWGQGTLVTVSS	1.27 1.52 0.80	2/9 (4.12)
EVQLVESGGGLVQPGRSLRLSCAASGFTFDDYARHWVRQAPGKGLEWVSGISWNSGSIGYAHSVKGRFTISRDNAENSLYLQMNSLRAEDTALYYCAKSGRGGGYFDYWGQGTLVTVSS	n.d. n.d. n.d.	2/9 (4.47)
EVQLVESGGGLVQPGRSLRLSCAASGETFDDYAMHWVRQAPGKGLEWVSGHSWNSGSIGYADSVKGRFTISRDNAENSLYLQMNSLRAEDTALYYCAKVGRGGIYFDYWGQGTLVTVSS	n.d. n.d. n.d.	2/9 (3.00)
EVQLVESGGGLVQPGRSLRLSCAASGWTFDDYAMHWVRQAPGKGLEWVSGISWNSGSIGYADSYCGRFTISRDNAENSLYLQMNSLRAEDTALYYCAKVGRGGGYFDYWGQGTLVTVSS	3.91 3.85 3.61	0/9
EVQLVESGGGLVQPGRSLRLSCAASGFVFDWYAMHWVRQAPGKGLEWVSGISGNSGSIGYADSVKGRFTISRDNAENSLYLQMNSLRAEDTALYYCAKVGRGGGYFDYWGQGTLVTVSS	0.21 0.23 -0.59	5/9 (4.19)
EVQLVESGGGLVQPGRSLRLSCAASGFRFDDYAMHWVRQAPGKGLEWVSGISWNSGSIGCADKVKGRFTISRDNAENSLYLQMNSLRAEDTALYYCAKVGRGGGYFDYWGQGTLVTVSS	n.d. n.d. n.d.	0/9
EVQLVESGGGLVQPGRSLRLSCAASGFTFDDYAWHWVRQAPGKGLEWVSGISWNCGSFGYADSVKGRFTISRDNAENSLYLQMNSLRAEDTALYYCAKVGRGGGYFDYWGQGTLVTVSS	n.d. n.d. n.d.	1/9 (3.69)
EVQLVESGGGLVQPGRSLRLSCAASGFTFDDYAMHWVRQAPGKGLEWVSGISWNDGSIGYAMSVKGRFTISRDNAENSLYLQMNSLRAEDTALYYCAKNGRGGGYFDYWGQGTLVTVSS	n.d. n.d. n.d.	1/9 (2.87)
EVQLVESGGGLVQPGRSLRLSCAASGFTQDLYAMHWVRQAPGKGLEWVSGGSWNSGSIGYADSVKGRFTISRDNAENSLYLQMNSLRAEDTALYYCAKVGRGGGYFDYWGQGTLVTVSS	n.d. n.d. n.d.	1/9 (5.19)

Top 2 of the variants detected in all replicates, tightest first:

VH,"replicates, log10 nM",empty controls
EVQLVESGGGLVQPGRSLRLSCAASGFVFDWYAMHWVRQAPGKGLEWVSGISGNSGSIGYADSVKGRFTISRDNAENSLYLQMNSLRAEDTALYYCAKVGRGGGYFDYWGQGTLVTVSS,0.21 0.23 -0.59,5/9 (4.19)
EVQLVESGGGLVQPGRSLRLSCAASGFTFDDYAMHWVRQAPGKGLEWVSGISWNSGQLGYADHVKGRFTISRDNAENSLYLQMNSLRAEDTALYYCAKVGRGGGYFDYWGQGTLVTVSS,1.27 1.52 0.80,2/9 (4.12)

Reference: Engelhart et al. 2022, doi:10.1038/s41597-022-01779-4. File: FLAb, binding data.